Assay results published in published antibiotic growth screens (doi:10.1038/s41589-023-01349-8).
This is one part of the list.

System: A. baumannii ATCC 17978
Test: relative growth (fraction of control); higher = less inhibition
Details: 50 µM

**Q.** With `OCCN1CCN(CCCN2c3ccccc3Sc3ccc(Cl)cc32)CC1` as the molecule, how does the relative growth read?
**A.** 0.804

**Q.** For `NC(=O)CCN1C(=O)c2ccccc2C1=O`, which relative growth is on record?
**A.** 1.06

**Q.** With `C[C@@H]1CN([C@@H](C)CO)S(=O)(=O)c2ccc(C#C[C@@H](C)O)cc2O[C@H]1CN(C)C(=O)CN(C)C` as the molecule, how does the relative growth read?
**A.** 1.04

**Q.** For `COC(=O)C(CC#Cc1ccc2c(c1)[C@]1(C(=O)N2)[C@H](c2ccccc2OCCO)N2[C@H](c3ccccc3)[C@H](c3ccccc3)OC(=O)[C@H]2[C@@H]1C(=O)Nc1nc2ccccc2s1)C(=O)OC`, which relative growth is on record?
**A.** 1.03

**Q.** Which relative growth does the source give for `Cc1cc(=O)n(CCO)c(=O)[nH]1` here?
**A.** 0.923

**Q.** Which relative growth does the source give for `Nc1ccc(S(=O)(=O)c2ccc(N)cc2)cc1` here?
**A.** 1.04

**Q.** Which relative growth does the source give for `CN(C)C(=O)C[C@@H]1CC[C@@H]2[C@H](COC[C@@H](O)CN2S(=O)(=O)c2ccccc2)O1` here?
**A.** 1.06

**Q.** How did the relative growth turn out when `CO[C@@H]1CN(C)C(=O)c2cc(NS(C)(=O)=O)ccc2OC[C@H](C)N(C(=O)C2CCOCC2)C[C@@H]1C` was run?
**A.** 1.19

**Q.** For `O=C(O)[C@H]1CCCC[C@@H]1C(=O)N1CCOCC1`, which relative growth is on record?
**A.** 1.01

**Q.** With `OC[C@H]1O[C@@H](Oc2ccc(O)cc2)[C@H](O)[C@@H](O)[C@@H]1O` as the molecule, how does the relative growth read?
**A.** 0.987

**Q.** Which relative growth does the source give for `COc1cc(/C=C/C(=O)O)cc(OC)c1OC` here?
**A.** 0.963

**Q.** `C=CCNC(=O)[C@@H]1[C@H]2C(=O)O[C@H](c3ccccc3)[C@H](c3ccccc3)N2[C@H](c2ccccc2OCCO)[C@@]12C(=O)Nc1ccc(C#CC3=CCCCC3)cc12` was tested. Which relative growth did it give?
**A.** 1.12

**Q.** For `CCCCC(=O)N(Cc1ccc(-c2ccccc2-c2nn[nH]n2)cc1)[C@H](C(=O)O)C(C)C`, which relative growth is on record?
**A.** 1.07

**Q.** With `C[C@H]1CN([C@@H](C)CO)S(=O)(=O)c2ccc(/C=C/c3ccccc3)cc2O[C@@H]1CN(C)C(=O)CN1CCOCC1` as the molecule, how does the relative growth read?
**A.** 0.864

**Q.** Which relative growth does the source give for `C[C@@H]1CN([C@@H](C)CO)S(=O)(=O)c2ccc(Br)cc2O[C@H]1CN(C)S(=O)(=O)c1ccccc1` here?
**A.** 0.911

**Q.** How did the relative growth turn out when `O=C(C[C@@H]1CC[C@@H](NS(=O)(=O)c2ccc(F)cc2)[C@@H](CO)O1)N1CCC(Cc2ccccc2)CC1` was run?
**A.** 0.829

**Q.** How did the relative growth turn out when `O=C(C[C@H]1C[C@H]2c3cc(NC(=O)c4cccnc4)ccc3O[C@H]2[C@@H](CO)O1)NCc1cc(F)ccc1F` was run?
**A.** 0.974

**Q.** For `O=C1c2ccccc2[C@@]2(Cc3ccccc3N(CCN3CCOCC3)C2=O)[C@H](c2ccc(CO)cc2)N1Cc1ccccc1Cl`, which relative growth is on record?
**A.** 0.952

**Q.** For `Nc1ccc(C(=O)N2CCOCC2)cc1`, which relative growth is on record?
**A.** 1.12

**Q.** How did the relative growth turn out when `O=C(CN1CCOCC1)N[C@@H]1CC[C@@H](CCNS(=O)(=O)c2ccccc2F)O[C@H]1CO` was run?
**A.** 1.28

**Q.** With `O=C(C[C@H]1CC[C@H]2[C@@H](COC[C@@H](O)CN2Cc2ccccc2F)O1)N[C@H]1CCN(Cc2ccccc2)C1` as the molecule, how does the relative growth read?
**A.** 0.936

**Q.** `CO[C@H]1CN(C)C(=O)c2cc(NS(C)(=O)=O)ccc2OC[C@H](C)N(C(=O)c2ccc3c(c2)OCO3)C[C@@H]1C` was tested. Which relative growth did it give?
**A.** 1.16
